Measured values taken from ChEMBL document CHEMBL1144008, “Synthesis, nitric oxide release, and anti-leukemic activity of glutathione-activated nitric oxide prodrugs: Structural analogues of PABA/NO, an anti-cancer lead compound” (Bioorg Med Chem, 2008).

Tested on: HL-60
Test: Antiproliferative activity against human HL60 cells by MTS assay
Type: functional, cell-based
How it was run: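 HL-60 human myeloid leukemia cells grown in RPMI 1640 with 10% FBS, 37 °C, 5% CO2. Seeded 10,000 cells/100 µL; compounds (DMSO stocks serially diluted in PBS, final DMSO 0.5%) added 24 h after plating. Viable cells read by MTS after 3 days. IC50 from nonlinear fit of absorbance vs concentration to a Hill-slope equation.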

## CN(C)/[N+]([O-])=N/Oc1cc(OC(=O)c2ccc([N+](=O)[O-])cc2)c([N+](=O)[O-])cc1[N+](=O)[O-]
  pIC50: < 4.60

pIC50: −log10 of the molar value.
